In the library only some 1% were active in any assay of this set; here they are far more common.
RXFP1 agonist: agonists of human relaxin receptor RXFP1 | HEK293T-RXFP1 cAMP TR-FRET, 30 min; response scale: percent of porcine relaxin response, buffer zero | actives 0.3% (n = 370,000) | Potency, µM (series often up to 57.5 µM), without a hit: top-dose activation, actives largely listed as activators | Q9HBX9 | AID 2676; also: potency is read from the fitted curve at half-maximal effect; % is scaled to controls: 0 for no effect and ±100 for the full control effect; nearly all actives have a fitted effect of over 60% in size
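HEK293 cells stably expressing RXFP1, treated 30 min at 37C with compounds plus PDE4 inhibitor Ro 20174; cAMP measured by HTRF TR-FRET. Normalized to buffer and 29 nM porcine relaxin; EC50 by Hill fit.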
gsp ag: activates gsp, the McCune-Albright syndrome mutation | Potency, µM (highest dose often 76.9 µM), for the others: top-dose activation (cAMP increase), hits mostly activators | gsp mutant cells, cAMP HTRF, 30 min | AID 624287 | actives 0.13% (n = 340,000); active = well fitted activation curve with a large enough effect; inconclusive = small, poorly fitted or top-dose-only effect, or another doubt; inactive = no such curve, though single readings can be large or run the other way; cell line not stated here;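 also: phosphodiesterase inhibitor Ro 20-1724 added with compounds to block cAMP breakdown; potency is read from the fitted curve at half-maximal effect; nearly all actives have a fitted effect of over 60% in size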
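Cells stably selected in G418 were plated at 2000/well, grown 16-24 hr, then given compounds in DMSO with the PDE inhibitor […] (300 uM solution added) for 30 min at 37C; cAMP was read by HTRF.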
Luc counter: counter-screen: inhibitors of Kinase-Glo firefly luciferase; Q27757; Kinase-Glo luciferase, ATP luminescence, 8 min; Potency, µM (doses to about 38.3 µM), for inactives: top-dose activity change, negative = inhibition, hits mostly inhibitors; actives 0.28% (n = 200,000); also: potency is read from the fitted curve at half-maximal effect; % is scaled to controls: 0 for no effect and ±100 for the full control effect; nearly all actives have a fitted effect of over 60% in size
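Kinase-Glo luciferase light output from ATP and luciferin was measured with 10 uM ATP, within the enzyme's linear range. Buffer: 50 mM imidazole pH 7.2, 50 mM KCl, 7 mM MgCl2, 0.01% Tween 20, 0.05% BSA; luminescence read after 8 min at ambient temperature.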
gsp antagonist: antagonists of gsp mutant (McCune-Albright syndrome) | AID 624288 | gsp-mutant cells, cAMP HTRF, 30 min | actives 0.4% (n = 340,000) | Potency, µM (titrated, usually from 76.9 µM), for the others: at the top dose activity change, negative = inhibition, hits mostly inhibitors; calls by dose curve; cell line not stated here;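 also: intracellular cAMP measured with PDE inhibitor Ro 20-1724 present during compound exposure; potency is read from the fitted curve at half-maximal effect; % is scaled to controls: 0 for no effect and ±100 for the full control effect; nearly all actives have a fitted effect of over 65% in size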
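Cells in G418 medium, seeded 16-24 h, 37C; buffer exchange to DPBS + 1 mM CaCl2, 0.5 mM MgCl2, 0.05% BSA; cpds in DMSO + […] (300 uM stock), 30 min 37C; HTRF cAMP detection.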
RXFP1 antagonist: RXFP1 (human) relaxin receptor antagonism; Q9HBX9; HEK293-RXFP1, relaxin-stimulated cAMP HTRF, 30 min; active compounds read low; activity change, negative = inhibition, % at 57.5 µM; actives 0.59% (n = 350,000); AID 1259400;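 active = activity change of -60% or lower, but not beyond a set lower limit; inconclusive = change between -60% and -40%, or beyond the set limit; inactive = change above -40%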; also: % is scaled to controls: 0 for no effect and ±100 for the full control effect
miR-21 reporter: miR-21 reporter, rising signal | HeLa miR-21 FLuc reporter, luciferase, 48 h | Potency, µM (doses to about 38.3 µM), inactives show at the top dose reporter change, positive = more light | 340,000 tested, under 10 active | AID 2288; active = well fitted rising curve with a large enough effect; inconclusive = small, poorly fitted or top-dose-only effect; inactive = no such curve, though single readings can be large or run the other way;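 note: % of control where 0% means no effect; miR-21 action dims this reporter so a rising signal means less miR-21 action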
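Luminescence from a firefly luciferase reporter carrying a miR-21 binding site downstream, stably expressed under a CMV promoter in HeLa cells that make miR-21 endogenously, reports miRNA modulation after 48 h compound exposure up to approximately 40uM final.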
The depositor's hits bear a star; ? = inconclusive; / = no result given; [ ] = another dose, or the depositor's remark. Unless noted, calls follow the shape of the dose curve; as a rule, active = well fitted curve in the direction sought with a large enough effect; inconclusive = small, poorly fitted or top-dose-only effect, or another doubt; inactive = no such curve, though single readings can be large; an effect the other way counts as inactive or inconclusive.

#1 CCOc1cc(C(=O)NCC(=O)N2CCC3(CC2)NCCc2[nH]cnc23)cc(OCC)c1OCC
#2 Cc1cccc(NC(=O)Cn2nc(-c3ccccc3)c3cnc4ccccc4c32)c1
#3 COc1ccc(-c2c3c([nH]c(=S)c2C#N)CCC3)cc1
#4 CC(C)(C)c1ccc2c(c1)OC(C(=O)N/N=C\c1ccc(-c3cccc(C(=O)O)c3)o1)CO2 (stereo not drawn)
#5 CC(C)(C)c1ccc2c(c1)OC(C(=O)N/N=C\c1ccccn1)CO2 (stereo not drawn)

Assay by compound | 1 | 2 | 3 | 4 | 5
RXFP1 antagonist | -119* | 3 | 16 | -74* | -61*
gsp antagonist | 5% | / | 17% | -25% | 3%
gsp ag | -3% | / | 4.5µM* | 11% | -46%
Luc counter | / | / | 0% | / | -1%
RXFP1 agonist | 0% | -3% | 32µM* | 4% | -2%
miR-21 reporter | -4% | -1% | -6% | -41% | -4%

A few values from the entries so far.
Entry of `CC(C)(C)c1ccc2c(c1)OC(C(=O)N/N=C\c1ccc(-c3cccc(C(=O)O)c3)o1)CO2` (stereo not drawn) under RXFP1 antagonist: -74*
Entry of `CC(C)(C)c1ccc2c(c1)OC(C(=O)N/N=C\c1ccccn1)CO2` (stereo not drawn) under RXFP1 antagonist: -61*
Entry of `CCOc1cc(C(=O)NCC(=O)N2CCC3(CC2)NCCc2[nH]cnc23)cc(OCC)c1OCC` under miR-21 reporter: -4%

The list continues:
#6 NC(=O)c1ccsc1NC(=O)COC(=O)Cc1cccc2ccccc12
#7 CN(C)CCCN(C(=O)c1ccc2c(c1)CCCC2)c1nc2ccc(Cl)cc2s1
#8 COc1cccc2sc(N(CCN(C)C)C(=O)c3ccc4c(c3)CCCC4)nc12
#9 COc1cccc2sc(N(CCCN(C)C)C(=O)c3ccc(S(=O)(=O)N4CCCc5ccccc54)cc3)nc12
#10 CN(C)CCCN(C(=O)c1ccc2ccccc2c1)c1nc2cc3c(cc2s1)OCO3

Assay by compound | 6 | 7 | 8 | 9 | 10
RXFP1 antagonist | -10 | -77* | -69* | -88* | -61*
gsp antagonist | 35µM* | 14% | -5% | 16% | 6%
gsp ag | 32% | 24% | 12%[15.4 µM] | ? | -56%
Luc counter | -3% | 1% | / | / | /
RXFP1 agonist | 0% | 1% | 1% | -3% | 0%
miR-21 reporter | 14% | 1% | 0% | 22% | -13%

#11 CCOc1ccc2nc(N(CCCN(C)C)C(=O)c3ccc4c(c3)CCCC4)sc2c1
#12 Cc1ccc(CN2CCSc3ccc(C(=O)NCC(C)c4ccccc4)cc32)cc1 (stereo not drawn)
#13 CCOc1ccc(Nc2ncnc3c2nc2n3CCCC2)cc1
#14 CC(C)NC(=O)COC(=O)c1ccc(S(=O)(=O)N2CCCC2)cc1
#15 CC(C)(C)NC(=O)COC(=O)c1ccc(S(=O)(=O)N2CCCCCC2)cc1

Assay by compound | 11 | 12 | 13 | 14 | 15
RXFP1 antagonist | -24 | -4 | -4 | -98* | -10
gsp antagonist | 10% | / | / | -3% | -17%
gsp ag | 8% | / | / | 7% | -15%
Luc counter | / | / | / | 1% | -1%
RXFP1 agonist | 1% | 14% | 10% | 2% | 1%
miR-21 reporter | -10% | -1% | -4% | 1% | 0%

#16 Nc1nc(-c2ccccc2)c(-c2ccccc2)s1
#17 Cc1ccc(-c2nc(N)sc2-c2ccccc2)cc1C
#18 COc1cccc(Oc2cncnc2-c2ccc(OC)cc2O)c1
#19 COc1ccc(-c2cncnc2-c2ccc(OC)cc2O)cc1
#20 N#Cc1c(C(F)(F)F)cc(-c2ccc(Cl)cc2)[nH]c1=O

Assay by compound | 16 | 17 | 18 | 19 | 20
RXFP1 antagonist | 2 | -84* | -4 | -3 | -10
gsp antagonist | -31% | -8% | 28µM* | -20% | 35µM*
gsp ag | 1% | 2% | 14% | 24% | 24%
Luc counter | 4% | -2% | 0% | / | 6%
RXFP1 agonist | 2% | 2% | 1% | 1% | 4%
miR-21 reporter | -4% | 1% | -15% | 20% | 1%

An excerpt from above, reduced to gsp ag.
# | canonical_smiles | gsp ag
17 | Cc1ccc(-c2nc(N)sc2-c2ccccc2)cc1C | 2%
20 | N#Cc1c(C(F)(F)F)cc(-c2ccc(Cl)cc2)[nH]c1=O | 24%

The results go on.
#21 N#Cc1c(C(F)(F)F)cc(-c2ccc(F)cc2)[nH]c1=O
#22 N#Cc1c(C(F)(F)F)cc(-c2cccc(Cl)c2)[nH]c1=O
#23 CCOC(=O)c1scc(-c2ccccc2)c1S(=O)(=O)Nc1ccc(N(C)C)cc1
#24 COc1ccc(OCc2ccc(-c3nc(C#N)c(NCc4cccnc4)o3)o2)cc1
#25 COc1ccc(C(C(=O)Nc2ccc(C(C)C)cc2)N(C)C(=O)Cc2cccs2)cc1 (stereo not drawn)
#26 CC1CCCN(C(=O)c2ccc3c(=O)n(C4CCCC4)c(=S)[nH]c3c2)C1 (stereo not drawn)

Assay by compound | 21 | 22 | 23 | 24 | 25 | 26
RXFP1 antagonist | -7 | -13 | -34 | -15 | -35 | -29
gsp antagonist | -12% | 35µM* | / | / | / | ?
gsp ag | 13%[15.4 µM] | 4% | / | / | / | ?
Luc counter | 2% | 3% | / | / | / | 1%
RXFP1 agonist | 12% | 3% | -4% | 2% | 4% | 1%
miR-21 reporter | -2% | 4% | -3% | 20% | ? | 4%

From PubChem
